Results on one compound are retold here after patent US20140255392A1 (BAYER INTELLECTUAL PROPERTY GMBH, priority 2011, published 2014).

The chains behind the UniProt entries cited, without tags or fusion partners.
UniProt P33981, whole entry: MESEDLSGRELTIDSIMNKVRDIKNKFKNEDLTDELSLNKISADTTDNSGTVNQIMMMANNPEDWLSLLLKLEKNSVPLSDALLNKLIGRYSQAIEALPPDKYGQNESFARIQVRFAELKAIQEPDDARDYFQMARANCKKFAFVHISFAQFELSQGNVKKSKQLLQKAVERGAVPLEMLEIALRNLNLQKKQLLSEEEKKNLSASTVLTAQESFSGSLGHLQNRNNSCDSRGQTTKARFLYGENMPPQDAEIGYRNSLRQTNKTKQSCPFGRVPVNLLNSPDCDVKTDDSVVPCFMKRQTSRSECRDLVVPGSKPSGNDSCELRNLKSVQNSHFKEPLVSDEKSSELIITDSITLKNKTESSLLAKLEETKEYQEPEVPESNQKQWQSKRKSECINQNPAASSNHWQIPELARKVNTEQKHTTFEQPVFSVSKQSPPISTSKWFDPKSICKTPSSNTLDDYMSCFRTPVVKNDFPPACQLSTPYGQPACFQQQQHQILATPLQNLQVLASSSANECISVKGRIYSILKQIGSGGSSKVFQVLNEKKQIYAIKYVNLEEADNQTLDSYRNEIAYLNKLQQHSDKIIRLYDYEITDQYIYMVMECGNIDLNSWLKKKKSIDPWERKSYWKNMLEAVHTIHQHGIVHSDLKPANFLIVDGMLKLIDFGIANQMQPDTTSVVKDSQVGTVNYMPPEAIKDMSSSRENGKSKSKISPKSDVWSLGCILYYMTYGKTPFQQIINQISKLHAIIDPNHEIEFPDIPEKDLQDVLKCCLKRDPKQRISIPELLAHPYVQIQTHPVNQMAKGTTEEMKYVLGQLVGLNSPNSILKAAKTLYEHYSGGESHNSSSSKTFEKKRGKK

Structures are written as SMILES.

The target in the experiment is human kinase Mps-1 (Homo sapiens, UniProt P33981). In words: Mps-1 kinase assay (TR-FRET). The note with it: read-out: Mps-1 IC50; N-terminally GST-tagged human full length recombinant Mps-1; 10 μM ATP; 1 μM peptide substrate; 60 min at 22° C. In general terms: In TR-FRET formats the signal depends on donor and acceptor labels being close together.

The term IC50 denotes the concentration needed to halve the response being measured. As for `Cc1cc(-c2cnc3c(NCCC(F)(F)F)cc(Oc4cccc(F)c4)cn23)ccc1C(=O)NC1(C#N)CCC1`, the IC50 worked out at 0.0406 µM.
